In publication PMC12412049 (Journal of controlled release : official journal of the …, 2025):

Experiments:
U87MG tumor [1] = experiment: PET imaging in U87MG tumor-bearing mice; format: in vivo; settings: (%ID/g max delayed ROI - early ROI)/early ROI × 100%
U87MG tumor [2] = experiment: Biodistribution study in U87MG tumor-bearing mice; format: in vivo; settings: 72 h post-injection, γ-counter, n = 3/group, mean ± SD
[3] = In vitro stability of radiolabeled compounds in human serum and PBS; settings: incubation with human serum and PBS for 4 h, 24 h and 72 h; iTLC, mobile phase 50 mM EDTA pH 5.5

[^64Cu]Cu-DOTA-c(RGDyK) [[^64Cu]Cu-DR]
Retention index (RI) (U87MG tumor [1]): −46.97% (± 14.82%)
Tumor uptake (biodistribution) (U87MG tumor [2]): 1.87 ± 0.88 %ID/g
In vitro stability (radiochemical purity) [3]: remained stable
